Data as given in patent US9109045B2, “Mass producing growth factor using adipose derived adult stem cells” (PROSTEMICS CO., LTD., priority 2006, dated 2015).

Test system: adipose-derived stem cells
Conditions: at the optimal concentrations

## vitamin D
  cytotoxicity by MTT assay: no cytotoxicity occurred
